Data taken from PubChem BioAssay (NCI).
Where “and” joins values, the source holds several entries; their conditions need not be identical. Equal values may be shown once. This is a selection; strong and weak results do not stand in their true shares.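 Plates (96-well) were seeded with cells, treated with compound at one concentration, and incubated for 48 hours before percent growth was determined.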 Calls of active or inactive are those of the source. The calls were made as follows: active = growth percent below 10; inactive = the rest.

Assays:
Assay in all cases: NCI-60 one-dose screen, 48 h (100 = growth as untreated, 0 = no growth, -100 = all killed)
Conditions in all cases: 10 µM unless noted
MOLT-4 leukemia = tested on: MOLT-4 leukemia
SR leukemia = tested on: SR leukemia
RPMI-8226 leukemia = tested on: RPMI-8226 leukemia
OVCAR-8 ovarian = tested on: OVCAR-8 ovarian
OVCAR-5 ovarian = tested on: OVCAR-5 ovarian
OVCAR-4 ovarian = tested on: OVCAR-4 ovarian
SK-OV-3 ovarian = tested on: SK-OV-3 ovarian
IGROV1 ovarian = tested on: IGROV1 ovarian
OVCAR-3 ovarian = tested on: OVCAR-3 ovarian
HS 578T breast = tested on: HS 578T breast

Measured: growth

CCN(CCCl)/N=N/c1nc2nc[nH]c(=O)c2[nH]1
inactive: MOLT-4 leukemia 103% | SR leukemia 84.4% | RPMI-8226 leukemia 108% | OVCAR-8 ovarian 105% | OVCAR-5 ovarian 105% | OVCAR-4 ovarian 105% | SK-OV-3 ovarian 97.1% | IGROV1 ovarian 104% | OVCAR-3 ovarian 112% | HS 578T breast 120%

Cc1cc([N+](=O)[O-])cc([N+](=O)[O-])c1O
inactive: MOLT-4 leukemia 93.5% | SR leukemia 103% | RPMI-8226 leukemia 103% | OVCAR-8 ovarian 106% | OVCAR-5 ovarian 96.8% | OVCAR-4 ovarian 107% | SK-OV-3 ovarian 99.9% | IGROV1 ovarian 116% | OVCAR-3 ovarian 107% | HS 578T breast 108%

O=[N+]([O-])N1CCCS1(=O)=O
inactive: MOLT-4 leukemia 108% | SR leukemia 102% | RPMI-8226 leukemia 102% | OVCAR-8 ovarian 104% | OVCAR-5 ovarian 101% | OVCAR-4 ovarian 106% | SK-OV-3 ovarian 97.8% | IGROV1 ovarian 106% | OVCAR-3 ovarian 104% | HS 578T breast 106%

Cc1ccc(S(=O)(=O)n2cc(C3(O)CC(CC#N)OC3=O)c3cc(Br)ccc32)cc1 (configuration not stated)
inactive: MOLT-4 leukemia 95.2% | SR leukemia 102% | RPMI-8226 leukemia 74.5% | OVCAR-8 ovarian 98.5% | OVCAR-5 ovarian 109% | OVCAR-4 ovarian 113% | SK-OV-3 ovarian 156% | IGROV1 ovarian 84.8% | OVCAR-3 ovarian 99.8% | HS 578T breast 93.2%

CCN(CCCl)CC1OC(O)C(O)C1O (configuration not stated)
inactive: MOLT-4 leukemia 104% | SR leukemia 96.3% | RPMI-8226 leukemia 100% | OVCAR-8 ovarian 102% | OVCAR-5 ovarian 104% | OVCAR-4 ovarian 120% | SK-OV-3 ovarian 109% | IGROV1 ovarian 97.2% | OVCAR-3 ovarian 118% | HS 578T breast 99.4%

CC(=O)Nc1ccc([As](=O)(O)O)c(O)c1
inactive: MOLT-4 leukemia 95.7% | SR leukemia 97.8% | RPMI-8226 leukemia 95.7% | OVCAR-8 ovarian 94.2% | OVCAR-5 ovarian 116% | OVCAR-4 ovarian 103% | SK-OV-3 ovarian 104% | IGROV1 ovarian 96.3% | OVCAR-3 ovarian 105% | HS 578T breast 97.2%

O=C(O)C(=O)c1ccc(N(CCCl)CCCl)cc1
inactive: MOLT-4 leukemia 79% | SR leukemia 80.8% | RPMI-8226 leukemia 106% | OVCAR-8 ovarian 101% | OVCAR-5 ovarian 105% | OVCAR-4 ovarian 110% | SK-OV-3 ovarian 104% | IGROV1 ovarian 101% | OVCAR-3 ovarian 110% | HS 578T breast 110%

O=C(C(=O)c1ccc([N+](=O)[O-])cc1[N+](=O)[O-])c1ccc([N+](=O)[O-])cc1[N+](=O)[O-]
inactive: MOLT-4 leukemia 93.6% | SR leukemia 93.6% | RPMI-8226 leukemia 97.7% | OVCAR-8 ovarian 95.8% | OVCAR-5 ovarian 104% | OVCAR-4 ovarian 96.7% | SK-OV-3 ovarian 93.9% | IGROV1 ovarian 98.8% | OVCAR-3 ovarian 104% | HS 578T breast 105%

CN(CCCl)/N=N/c1nc2nc[nH]c(=O)c2[nH]1
inactive: MOLT-4 leukemia 93.2% | SR leukemia 99.1% | RPMI-8226 leukemia 104% | OVCAR-8 ovarian 101% | OVCAR-5 ovarian 111% | OVCAR-4 ovarian 98.4% | SK-OV-3 ovarian 94.9% | IGROV1 ovarian 107% | OVCAR-3 ovarian 110% | HS 578T breast 98%

Fc1cccc(CNCCCl)c1
inactive: MOLT-4 leukemia 104% | SR leukemia 111% | RPMI-8226 leukemia 99.4% | OVCAR-8 ovarian 109% | OVCAR-5 ovarian 108% | OVCAR-4 ovarian 107% | SK-OV-3 ovarian 111% | IGROV1 ovarian 112% | OVCAR-3 ovarian 99.2% | HS 578T breast 123%

C[As](=O)(O)c1cccc(C(=O)O)c1
inactive: MOLT-4 leukemia 102% | SR leukemia 101% | RPMI-8226 leukemia 96.9% | OVCAR-8 ovarian 100% | OVCAR-5 ovarian 97.6% | OVCAR-4 ovarian 95.7% | SK-OV-3 ovarian 102% | IGROV1 ovarian 98.6% | OVCAR-3 ovarian 112% | HS 578T breast 116%

ClC(Cl)(Cl)C1SCCS1
inactive: MOLT-4 leukemia 92.8% | SR leukemia 102% | RPMI-8226 leukemia 96% | OVCAR-8 ovarian 98% | OVCAR-5 ovarian 114% | OVCAR-4 ovarian 107% | SK-OV-3 ovarian 131% | IGROV1 ovarian 102% | OVCAR-3 ovarian 118% | HS 578T breast 109%

ClCCNC(Cc1ccccc1)c1ccccc1 (configuration not stated)
inactive: MOLT-4 leukemia 90.5% | SR leukemia 89.8% | RPMI-8226 leukemia 104% | OVCAR-8 ovarian 96.6% | OVCAR-5 ovarian 96.9% | OVCAR-4 ovarian 100% | SK-OV-3 ovarian 96.7% | IGROV1 ovarian 99.9% | OVCAR-3 ovarian 97.6% | HS 578T breast 98.2%

CCCCCCCCCCNP(=S)(Cl)Cl
inactive: MOLT-4 leukemia 96.3% | SR leukemia 93.8% | RPMI-8226 leukemia 98.5% | OVCAR-8 ovarian 101% | OVCAR-5 ovarian 98.2% | OVCAR-4 ovarian 111% | SK-OV-3 ovarian 118% | IGROV1 ovarian 105% | OVCAR-3 ovarian 107% | HS 578T breast 96.2%

COc1cc([N+](=O)[O-])cc([N+](=O)[O-])c1
inactive: MOLT-4 leukemia 92.7% | SR leukemia 90.2% | RPMI-8226 leukemia 99.5% | OVCAR-8 ovarian 102% | OVCAR-5 ovarian 117% | OVCAR-4 ovarian 102% | SK-OV-3 ovarian 107% | IGROV1 ovarian 130% | OVCAR-3 ovarian 116% | HS 578T breast 114%

COc1ccc(N)c([N+](=O)[O-])c1[N+](=O)[O-]
inactive: MOLT-4 leukemia 99.5% | SR leukemia 99.9% | RPMI-8226 leukemia 91.2% | OVCAR-8 ovarian 95.6% | OVCAR-5 ovarian 99% | OVCAR-4 ovarian 103% | SK-OV-3 ovarian 115% | IGROV1 ovarian 110% | OVCAR-3 ovarian 111% | HS 578T breast 103%

ClCC1CS1 (configuration not stated)
inactive: MOLT-4 leukemia 91.1% | SR leukemia 83.2% | RPMI-8226 leukemia 98.6% | OVCAR-8 ovarian 103% | OVCAR-5 ovarian 111% | OVCAR-4 ovarian 101% | SK-OV-3 ovarian 103% | IGROV1 ovarian 101% | OVCAR-3 ovarian 108% | HS 578T breast 119%

COc1ccc(C2N=C(NN=C(CCl)CCl)SP2(=O)Nc2ncccn2)c(OC)c1 (configuration not stated)
inactive: MOLT-4 leukemia 110% [100 µM] | SR leukemia 100% [100 µM] | RPMI-8226 leukemia 102% [100 µM] | OVCAR-8 ovarian 105% [100 µM] | OVCAR-5 ovarian 102% [100 µM] | OVCAR-4 ovarian 101% [100 µM] | SK-OV-3 ovarian 95.5% [100 µM] | IGROV1 ovarian 99% [100 µM] | OVCAR-3 ovarian 109% [100 µM] | HS 578T breast 93.3% [100 µM]

CCOC(=O)CCNCCSP(=O)(O)O
inactive: MOLT-4 leukemia 120% | SR leukemia 116% | RPMI-8226 leukemia 102% | OVCAR-8 ovarian 97.9% | OVCAR-5 ovarian 94.6% | OVCAR-4 ovarian 110% | SK-OV-3 ovarian 116% | IGROV1 ovarian 111% | OVCAR-3 ovarian 103% | HS 578T breast 95.8%

Cc1ccc(S(=O)(=O)n2cc([C@@]3(O)C[C@H](CC#N)OC3=O)c3ccccc32)cc1
active: MOLT-4 leukemia 6.25% | SR leukemia 1.03% | RPMI-8226 leukemia -24.7% | IGROV1 ovarian -15.2% | OVCAR-3 ovarian -49.3% | HS 578T breast -10.3%
inactive: OVCAR-8 ovarian 12.2% | OVCAR-5 ovarian 46.6% | OVCAR-4 ovarian 38.4% | SK-OV-3 ovarian 40.8%

S=P(Cl)(N1CCCCCC1)N1CC1 (configuration not stated)
inactive: MOLT-4 leukemia 103% | SR leukemia 102% | RPMI-8226 leukemia 93.3% | OVCAR-8 ovarian 102% | OVCAR-5 ovarian 108% | OVCAR-4 ovarian 103% | SK-OV-3 ovarian 130% | IGROV1 ovarian 96% | OVCAR-3 ovarian 119% | HS 578T breast 105%

CN(C)P1(Cl)=NP(Cl)(N(C)C)=NP(Cl)(N(C)C)=N1 (configuration not stated)
inactive: MOLT-4 leukemia 67.5% | SR leukemia 90.1% | RPMI-8226 leukemia 103% | OVCAR-8 ovarian 89.8% | OVCAR-5 ovarian 109% | OVCAR-4 ovarian 109% | SK-OV-3 ovarian 89.9% | IGROV1 ovarian 107% | OVCAR-3 ovarian 111% | HS 578T breast 97.6%

CCCC1OP(N)(=O)OCC1CC (configuration not stated)
inactive: MOLT-4 leukemia 97.7% | SR leukemia 99.5% and 123% | RPMI-8226 leukemia 105% and 93.3% | OVCAR-8 ovarian 110% and 106% | OVCAR-5 ovarian 112% and 101% | OVCAR-4 ovarian 130% and 104% | SK-OV-3 ovarian 101% and 107% | IGROV1 ovarian 113% and 104% | OVCAR-3 ovarian 113% and 92.2% | HS 578T breast 110% and 95.6%

O=P1(N(CCCl)CCCl)Nc2ccccc2N1
inactive: MOLT-4 leukemia 98.7% | SR leukemia 110% | RPMI-8226 leukemia 110% | OVCAR-8 ovarian 119% | OVCAR-5 ovarian 121% | OVCAR-4 ovarian 108% | SK-OV-3 ovarian 111% | IGROV1 ovarian 111% | OVCAR-3 ovarian 122% | HS 578T breast 130%

O=[N+]([O-])C1C(O)C(O)C([N+](=O)[O-])C(O)C1O (configuration not stated)
inactive: MOLT-4 leukemia 105% | SR leukemia 125% | RPMI-8226 leukemia 106% | OVCAR-8 ovarian 108% | OVCAR-5 ovarian 101% | SK-OV-3 ovarian 104% | IGROV1 ovarian 102% | OVCAR-3 ovarian 111% | HS 578T breast 104%

Cc1ccc(SP(=O)(CCl)N(CCCl)CCCl)cc1 (configuration not stated)
inactive: MOLT-4 leukemia 94.3% | SR leukemia 72.7% | RPMI-8226 leukemia 91.3% | OVCAR-8 ovarian 94.9% | OVCAR-5 ovarian 92.9% | OVCAR-4 ovarian 95.6% | SK-OV-3 ovarian 104% | OVCAR-3 ovarian 106%

Cc1ccc(S(=O)(=O)N(CCCN)CCCc2c(C)nc(N)[nH]c2=O)cc1
inactive: MOLT-4 leukemia 96.9% | SR leukemia 99.6% | RPMI-8226 leukemia 99.9% | OVCAR-8 ovarian 100% | OVCAR-5 ovarian 103% | OVCAR-4 ovarian 99% | SK-OV-3 ovarian 105% | IGROV1 ovarian 104% | OVCAR-3 ovarian 113% | HS 578T breast 97.6%

CCOP(=O)(Nc1ccccc1)OCC
inactive: MOLT-4 leukemia 95.4% | SR leukemia 95.5% | RPMI-8226 leukemia 101% | OVCAR-8 ovarian 103% | OVCAR-5 ovarian 103% | OVCAR-4 ovarian 111% | SK-OV-3 ovarian 92.6% | IGROV1 ovarian 101% | OVCAR-3 ovarian 110% | HS 578T breast 109%

COC(=O)C1(C)COP(=O)(N2CCCC2)OC1 (configuration not stated)
inactive: MOLT-4 leukemia 98.4% | SR leukemia 87.2% | RPMI-8226 leukemia 92.3% | OVCAR-8 ovarian 101% | OVCAR-5 ovarian 107% | OVCAR-4 ovarian 105% | SK-OV-3 ovarian 104% | IGROV1 ovarian 106% | OVCAR-3 ovarian 105% | HS 578T breast 105%

CCOP(=O)(Nc1ccccc1Cl)OCC
inactive: MOLT-4 leukemia 93.6% | SR leukemia 100% | RPMI-8226 leukemia 100% | OVCAR-8 ovarian 98.4% | OVCAR-5 ovarian 114% | OVCAR-4 ovarian 89.9% | SK-OV-3 ovarian 94.8% | IGROV1 ovarian 86% | OVCAR-3 ovarian 91.9% | HS 578T breast 90.4%
